# Data as given in patent US20090215080A1.
# The chains behind the UniProt entries cited, without tags or fusion partners. Residues count along the entry.
# UniProt P03952, 20-638 limits assumed: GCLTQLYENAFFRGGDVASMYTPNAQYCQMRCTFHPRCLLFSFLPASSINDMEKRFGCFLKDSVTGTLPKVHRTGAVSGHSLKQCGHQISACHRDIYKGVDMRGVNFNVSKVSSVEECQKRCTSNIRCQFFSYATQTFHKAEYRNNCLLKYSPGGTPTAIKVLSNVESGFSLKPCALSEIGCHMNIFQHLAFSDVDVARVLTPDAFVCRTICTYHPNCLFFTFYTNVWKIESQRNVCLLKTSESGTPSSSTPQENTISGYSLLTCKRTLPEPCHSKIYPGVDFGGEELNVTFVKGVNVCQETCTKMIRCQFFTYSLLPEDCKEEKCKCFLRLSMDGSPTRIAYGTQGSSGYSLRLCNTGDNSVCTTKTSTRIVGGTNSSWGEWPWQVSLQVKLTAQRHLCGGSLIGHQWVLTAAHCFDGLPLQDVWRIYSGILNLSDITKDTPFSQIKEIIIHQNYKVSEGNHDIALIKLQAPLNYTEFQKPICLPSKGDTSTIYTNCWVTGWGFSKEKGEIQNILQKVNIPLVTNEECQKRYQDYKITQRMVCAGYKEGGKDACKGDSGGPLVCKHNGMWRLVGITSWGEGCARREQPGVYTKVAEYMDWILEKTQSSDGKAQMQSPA
# Molecular target: thrombin (Homo sapiens, UniProt P00734)
# Assay: Cleavage of R-Arg-pNA chimeric substrates by thrombin (A405 kinetic read)
# Settings: relative to baseline substrate Acetyl-Arg-pNA (Compound 1)
row,SMILES,Relative Catalytic Efficiency (RCE)
1,N=C(N)NCCC[C@H](NC(=O)c1ccccc1Cl)C(=O)Nc1ccc([N+](=O)[O-])cc1,5.5
2,N=C(N)NCCC[C@H](NC(=O)c1ccccc1C(F)(F)F)C(=O)Nc1ccc([N+](=O)[O-])cc1,1.0
3,CC(=O)Nc1ccccc1C(=O)N[C@@H](CCCNC(=N)N)C(=O)Nc1ccc([N+](=O)[O-])cc1,1.0
4,CC(=O)N[C@@H](CCCNC(=N)N)C(=O)Nc1ccc([N+](=O)[O-])cc1,1.0
5,CC(C(=O)N[C@@H](CCCNC(=N)N)C(=O)Nc1ccc([N+](=O)[O-])cc1)c1ccccc1 (stereo partly drawn),2.2
6,Cc1ccc(CC(=O)N[C@@H](CCCNC(=N)N)C(=O)Nc2ccc([N+](=O)[O-])cc2)cc1,4.0
7,N#Cc1ccccc1C(=O)N[C@@H](CCCNC(=N)N)C(=O)Nc1ccc([N+](=O)[O-])cc1,0.9

# Same assay, conditions: versus Acetyl-Arg-pNA baseline
row,SMILES,cleavage over baseline (in words)
1,N=C(N)NCCC[C@H](NC(=O)c1ccccc1Cl)C(=O)Nc1ccc([N+](=O)[O-])cc1,enhanced cleavage over baseline

# Molecular target: plasma kallikrein (Homo sapiens, UniProt P03952)
# Assay: Cleavage of R-Arg-pNA chimeric substrates by plasma kallikrein (A405 kinetic read)
# Settings: relative to baseline substrate Acetyl-Arg-pNA (Compound 1)
row,SMILES,Relative Catalytic Efficiency (RCE)
1,N=C(N)NCCC[C@H](NC(=O)c1cccc(-n2cccn2)c1)C(=O)Nc1ccc([N+](=O)[O-])cc1,115.4
2,N=C(N)NCCC[C@H](NC(=O)c1cccc(Oc2ccccc2)c1)C(=O)Nc1ccc([N+](=O)[O-])cc1,16.70
3,Cc1ccc(C(=O)N[C@@H](CCCNC(=N)N)C(=O)Nc2ccc([N+](=O)[O-])cc2)cn1,3.9
4,N=C(N)NCCC[C@H](NC(=O)c1cncc(-c2cccs2)c1)C(=O)Nc1ccc([N+](=O)[O-])cc1,24.8
5,N=C(N)NCCC[C@H](NC(=O)c1cnc2ccccc2c1)C(=O)Nc1ccc([N+](=O)[O-])cc1,45.9
6,N=C(N)NCCC[C@H](NC(=O)c1cncc(-c2ccccc2)c1)C(=O)Nc1ccc([N+](=O)[O-])cc1,29.4

# Same assay, conditions: versus Acetyl-Arg-pNA baseline
row,SMILES,enhancement of the baseline cleavage rate [fold]
1,N=C(N)NCCC[C@H](NC(=O)c1cccc(-n2cccn2)c1)C(=O)Nc1ccc([N+](=O)[O-])cc1,> 100
